This is an account of results in ChEMBL document CHEMBL1134812, “Benzamide bioisosteres incorporating dihydroheteroazole substructures: EPC synthesis and SAR leading to a selective dopamine D4 receptor partial agonist (FAUC 179)” (Bioorg Med Chem Lett, 2001).

Protein sequences, listed by entry. Tags and fused reporters are not part of them.
UniProt P21917, whole entry: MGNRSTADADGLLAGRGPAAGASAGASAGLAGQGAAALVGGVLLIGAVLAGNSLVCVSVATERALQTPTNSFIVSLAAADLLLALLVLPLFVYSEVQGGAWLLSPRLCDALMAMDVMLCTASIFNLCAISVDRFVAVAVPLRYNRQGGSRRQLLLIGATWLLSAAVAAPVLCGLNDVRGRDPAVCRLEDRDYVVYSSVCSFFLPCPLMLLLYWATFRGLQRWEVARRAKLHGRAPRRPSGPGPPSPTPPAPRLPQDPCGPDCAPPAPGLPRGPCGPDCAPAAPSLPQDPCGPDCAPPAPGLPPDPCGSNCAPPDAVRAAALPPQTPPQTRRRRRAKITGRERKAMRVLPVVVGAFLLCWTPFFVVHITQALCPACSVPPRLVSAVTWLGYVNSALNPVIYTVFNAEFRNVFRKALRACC

SMILES strings stand for the structures.

Format in all cases: cell-based
Test [1] concerns the target T1, D(4) dopamine receptor (Homo sapiens, UniProt P21917). Description: In vitro for its ability to displace [3H]- spiperone from cloned human Dopamine receptor D4 expressed in CHO cells. The gist of the method: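 [3H]Spiperone displacement from cloned human dopamine receptors stably expressed in CHO cells: D2long, D2short, D3 and D4.4 (the D4 line used the D4.4 variant). Ki values were determined.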

The target of test [2] is T1, D(4) dopamine receptor. Description: In vitro for its ability to displace [3H]- spiperone from cloned human Dopamine receptor D4 expressed in CHO cells; High binding affinity.
Test [3] has as its target T1, D(4) dopamine receptor. Description: In vitro for its ability to displace [3H]- spiperone from cloned human Dopamine receptor D4 expressed in CHO cells; Low binding affinity.

One may read the Ki as a dissociation constant, usually derived from enzyme kinetics or from competition with a known ligand. A higher Ki goes with weaker binding. At D(4) dopamine receptor [1], `c1ccc(C2=NC[C@H](CN3CCN(c4ccccc4)CC3)N2)cc1` (stereo in doubt) displayed an inhibitory constant (Ki) of 72 nM.
Turning to `c1ccc(C2=NC[C@H](CN3CCN(c4ccccc4)CC3)N2)cc1` (stereo in doubt; 4e), the inhibition constant Ki on D(4) dopamine receptor [2] came out at 0.95 nM; at D(4) dopamine receptor [3] it was 51 nM.
